Reference: patent US9630956B2, “Compounds useful as inhibitors of ATR kinase” (Vertex Pharmaceuticals Incorporated, priority 2010, dated 2017)

Amino acid sequences for entries named in this document (tags omitted).
UniProt Q13535, whole entry: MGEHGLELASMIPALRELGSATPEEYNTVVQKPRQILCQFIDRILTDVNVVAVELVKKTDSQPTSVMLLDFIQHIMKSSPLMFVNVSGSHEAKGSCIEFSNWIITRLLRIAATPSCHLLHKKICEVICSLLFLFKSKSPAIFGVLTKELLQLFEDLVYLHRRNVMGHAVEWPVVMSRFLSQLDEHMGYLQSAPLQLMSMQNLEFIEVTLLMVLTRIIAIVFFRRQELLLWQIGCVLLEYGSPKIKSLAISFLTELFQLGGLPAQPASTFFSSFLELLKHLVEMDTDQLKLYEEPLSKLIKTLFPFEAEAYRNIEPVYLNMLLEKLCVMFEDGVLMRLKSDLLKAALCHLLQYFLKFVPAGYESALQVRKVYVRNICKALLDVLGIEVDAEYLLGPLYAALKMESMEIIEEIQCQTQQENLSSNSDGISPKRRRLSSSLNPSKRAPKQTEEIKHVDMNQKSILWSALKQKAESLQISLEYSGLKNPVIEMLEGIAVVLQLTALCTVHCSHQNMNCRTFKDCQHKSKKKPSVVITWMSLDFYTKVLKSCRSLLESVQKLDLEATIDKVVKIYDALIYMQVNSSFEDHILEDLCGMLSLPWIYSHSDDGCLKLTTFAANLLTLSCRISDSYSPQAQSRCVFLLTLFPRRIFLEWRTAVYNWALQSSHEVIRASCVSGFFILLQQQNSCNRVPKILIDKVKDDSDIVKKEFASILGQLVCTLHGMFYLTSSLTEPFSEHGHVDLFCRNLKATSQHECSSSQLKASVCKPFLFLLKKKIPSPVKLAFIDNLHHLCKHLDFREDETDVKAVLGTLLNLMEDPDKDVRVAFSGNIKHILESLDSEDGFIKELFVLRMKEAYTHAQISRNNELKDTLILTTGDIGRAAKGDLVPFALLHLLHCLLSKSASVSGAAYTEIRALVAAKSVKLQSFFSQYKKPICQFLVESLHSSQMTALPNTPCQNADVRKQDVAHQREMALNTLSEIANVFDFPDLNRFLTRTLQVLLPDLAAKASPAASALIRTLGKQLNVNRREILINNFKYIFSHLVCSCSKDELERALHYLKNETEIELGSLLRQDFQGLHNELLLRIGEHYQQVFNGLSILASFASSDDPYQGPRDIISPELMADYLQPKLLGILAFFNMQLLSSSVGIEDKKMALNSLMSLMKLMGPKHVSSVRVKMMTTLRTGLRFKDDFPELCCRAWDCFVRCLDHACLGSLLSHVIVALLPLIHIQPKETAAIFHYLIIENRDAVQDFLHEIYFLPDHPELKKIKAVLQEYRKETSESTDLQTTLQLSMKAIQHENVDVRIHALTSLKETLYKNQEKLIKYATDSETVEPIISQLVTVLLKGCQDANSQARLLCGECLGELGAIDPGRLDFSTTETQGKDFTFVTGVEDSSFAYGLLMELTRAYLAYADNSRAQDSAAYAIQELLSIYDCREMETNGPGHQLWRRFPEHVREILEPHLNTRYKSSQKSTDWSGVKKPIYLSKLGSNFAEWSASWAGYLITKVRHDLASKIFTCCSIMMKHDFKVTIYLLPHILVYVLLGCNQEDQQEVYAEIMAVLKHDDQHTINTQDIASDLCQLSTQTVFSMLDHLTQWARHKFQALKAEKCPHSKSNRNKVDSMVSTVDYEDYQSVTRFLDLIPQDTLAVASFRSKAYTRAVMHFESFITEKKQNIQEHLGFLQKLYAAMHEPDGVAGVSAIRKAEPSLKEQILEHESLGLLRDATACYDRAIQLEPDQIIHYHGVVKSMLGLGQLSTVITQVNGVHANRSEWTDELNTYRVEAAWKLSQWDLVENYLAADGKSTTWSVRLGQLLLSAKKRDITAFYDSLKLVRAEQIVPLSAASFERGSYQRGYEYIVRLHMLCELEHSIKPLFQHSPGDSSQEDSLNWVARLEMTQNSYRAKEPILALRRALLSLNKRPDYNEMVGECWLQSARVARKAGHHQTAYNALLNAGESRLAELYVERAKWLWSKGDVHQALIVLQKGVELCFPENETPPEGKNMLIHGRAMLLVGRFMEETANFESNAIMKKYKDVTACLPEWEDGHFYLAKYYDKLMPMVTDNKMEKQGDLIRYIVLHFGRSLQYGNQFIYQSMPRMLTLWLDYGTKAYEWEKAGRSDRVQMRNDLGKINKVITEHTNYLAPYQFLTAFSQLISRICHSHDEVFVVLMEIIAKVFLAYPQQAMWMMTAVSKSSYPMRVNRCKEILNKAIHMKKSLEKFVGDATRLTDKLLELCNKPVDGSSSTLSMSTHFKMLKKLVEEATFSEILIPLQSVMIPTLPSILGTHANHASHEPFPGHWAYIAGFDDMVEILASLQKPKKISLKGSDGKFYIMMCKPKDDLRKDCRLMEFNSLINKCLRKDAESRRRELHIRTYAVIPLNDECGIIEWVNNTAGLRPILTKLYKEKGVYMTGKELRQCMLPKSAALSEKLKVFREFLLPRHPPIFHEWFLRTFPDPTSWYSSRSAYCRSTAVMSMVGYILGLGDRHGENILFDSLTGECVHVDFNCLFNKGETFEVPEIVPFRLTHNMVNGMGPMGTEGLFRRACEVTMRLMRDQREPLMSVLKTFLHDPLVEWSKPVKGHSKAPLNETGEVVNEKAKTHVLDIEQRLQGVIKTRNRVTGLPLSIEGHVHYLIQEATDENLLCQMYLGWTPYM

What was measured:
[1] = system: HCT116 colorectal cancer cells; test: Cisplatin Sensitization Assay (96h cell viability MTS); conditions: concentration of compound required to reduce the IC50 of Cisplatin alone by at least 3-fold, 96h MTS
Protocol: Compounds can be screened for their ability to sensitize HCT116 colorectal cancer cells to Cisplatin using a 96h cell viability (MTS) assay. […] Compounds and Cisplatin are then both added simultaneously to the cell media in 2-fold serial dilutions from a top final concentration of 10 μM as a full matrix of concentrations in a final cell volume of 200 μl, and the cells are then incubated at 37° C. in 5% CO2. After 96h, 40 μl of […] (Promega G358a) is added to each well and the cells are incubated for 1 h at 37° C. in 5% CO2. Finally, absorbance is measured at 490 nm using a SpectraMax Plus 384 reader (Molecular Devices) and the concentration of compound required to reduce the IC50 of Cisplatin alone by at least 3-fold (to 1 decimal place) can be reported (CP3 shift).

full-length ATR = full-length ATR (Homo sapiens (Human), UniProt Q13535); test: ATR Inhibition Assay (radioactive-phosphate incorporation); conditions: read-out: Ki Value; ATR Inhibition Ki(app); 10 μM ATP, 800 μM target peptide, 5 nM full-length ATR, 25° C.

Compound | CP3 shift [1] | Ki (full-length ATR)
CC(N)c1cccc(-c2cc(-c3nc(-c4ccc(=O)n(C5CCCC5)c4)cnc3N)on2)c1 (stereo not shown) | 0.039 µM | –
CC(C)n1cc(-c2cnc(N)c(-c3cc(-c4ccc(CNC(C)(C)C)cc4)no3)n2)ccc1=O | 0.312 µM | –
CNCc1ccc(-c2cc(-c3nc(-c4ccc(=O)n(C5CCCC5)c4)cnc3N)on2)cc1 | 0.078 µM | –
CNCc1ccc(-c2cc(-c3nc(-c4ccc(=O)n(CCO)c4)cnc3N)on2)cc1 | – | < 5 nM
